Earlier results as cited in patent US20160193276A1 (Teva Pharmaceutical Industries, Ltd., priority 2012, published 2016).

System: patients

L-glutamic acid polymer with L-alanine, L-lysine, L-tyrosine, acetate (salt) [glatiramer acetate]
Proportion of patients reporting injection-site reactions at least once (controlled studies, placebo injections 37%): 70% | Safety data in clinical trials (injection): safe and well tolerated | Patients with Immediate Post-Injection Reaction (IPIR) (vs. 13% on placebo): 31%
